These results are taken from patent US20250381183A1, “TARGETING S100A9-ALDH1A1-RETINOIC ACID SIGNALING TO SUPPRESS BRAIN RELAPSE IN EGFR-MUTANT LUNG CANCER” (The Trustees of Columbia University in the City of New York, priority 2022, published 2025).

The test system of one series is H1650-Tr-BrM cells. Briefly: Cell viability assay, sensitivity to pan-RAR inhibition, H1650-Tr-BrM. The format is cell-based, human. Particulars: retinal-treated H1650-Tr-BrM compared to H1650-BrM cells. How it is done:
(§1) FIG. 13C: Cell viability assay for comparing in-vitro sensitivity of the indicated cell lines to pan-RAR-inhibition (AGN194310, abbreviated as “AGN”). Cell viability values are normalized to the vehicle (DMSO)-treated control, presented as the mean values±SEM, and representative of three independent experiments. P-values were determined by two-way ANOVA with Tukey's test.

Another series concerns PC9-Tr-BrM cells. In words: Cell viability assay, sensitivity to pan-RAR inhibition, PC9-Tr-BrM. The format is cell-based, human. The conditions noted are these: retinal-treated PC9-Tr-BrM compared to PC9-BrM cells. How it is done:
as §1

For `CCc1ccc(C2=CC(C)(C)Sc3ccc(C#Cc4ccc(C(=O)O)cc4)cc32)cc1` [AGN-194310], the “cytotoxicity with pan-RAR antagonism (cell viability)” value in the series on H1650-Tr-BrM cells and in the series on PC9-Tr-BrM cells was “striking dose-dependent cytotoxicity” in each case.

For the compound `C=CC(=O)Nc1cc(Nc2nccc(-c3cn(C)c4ccccc34)n2)c(OC)cc1N(C)CCN(C)C` [osimertinib], the “progression of cancer cells in the extracranial sites (bone and lymph nodes)” value in the series on PC9-BrM cells (PC9-BrM model, continuous osimertinib treatment, bioluminescence imaging) is “did not progress”. Moreover, the “brain relapse and death” value in the series on PC9-BrM cells (PC9-BrM model, long-term osimertinib 5 mg/kg/day) is “all drug-treated mice eventually developed brain relapse and died”. For the same compound, the brain-metastasis-progression-free survival with PC9-BrM cells (PC9-BrM-injected mice, osimertinib 5 mg/kg body weight/day, five days per week from 25 days post-injection, vehicle 47 days) is 144 days; in the series on H1650-BrM cells (H1650-BrM-injected mice, osimertinib 5 mg/kg/day vs vehicle), “prolonged”. Also, in the series on H1650-BrM cells (H1650-BrM model, after response period), the “osimertinib-treated mice that developed brain relapse” value is 100%. The response period in the series with H1650-BrM cells (H1650-BrM model, osimertinib 5 mg/kg/day) came to 120 days.
